In patent US20220381657A1, “METHOD FOR PREPARING BIOLOGICAL MATERIAL HAVING EXCELLENT LIGHT-TRANSMITTING PROPERTY” (RIKEN, priority 2016, published 2022) one finds OD400 and pH data, which are given here for one molecule.

The nature of one series: OD400 of the chemical. The following applies: Table 1.
The next series can be described thus: pH of the chemical. The following applies: Table 1.

Molecule `OCCN(CCO)CCO` showed an OD400 in the series “OD400 of the chemical” of 0.048. Besides, in “pH of the chemical”, the pH is reported as 12.0.
